Source: article doi:10.1101/2025.10.14.682402v1 (biorxiv, 2025)

Biological target: T1, ULK1 (NanoBRET) (Homo sapiens, UniProt O75385)
T1 sequence (O75385 1-1050): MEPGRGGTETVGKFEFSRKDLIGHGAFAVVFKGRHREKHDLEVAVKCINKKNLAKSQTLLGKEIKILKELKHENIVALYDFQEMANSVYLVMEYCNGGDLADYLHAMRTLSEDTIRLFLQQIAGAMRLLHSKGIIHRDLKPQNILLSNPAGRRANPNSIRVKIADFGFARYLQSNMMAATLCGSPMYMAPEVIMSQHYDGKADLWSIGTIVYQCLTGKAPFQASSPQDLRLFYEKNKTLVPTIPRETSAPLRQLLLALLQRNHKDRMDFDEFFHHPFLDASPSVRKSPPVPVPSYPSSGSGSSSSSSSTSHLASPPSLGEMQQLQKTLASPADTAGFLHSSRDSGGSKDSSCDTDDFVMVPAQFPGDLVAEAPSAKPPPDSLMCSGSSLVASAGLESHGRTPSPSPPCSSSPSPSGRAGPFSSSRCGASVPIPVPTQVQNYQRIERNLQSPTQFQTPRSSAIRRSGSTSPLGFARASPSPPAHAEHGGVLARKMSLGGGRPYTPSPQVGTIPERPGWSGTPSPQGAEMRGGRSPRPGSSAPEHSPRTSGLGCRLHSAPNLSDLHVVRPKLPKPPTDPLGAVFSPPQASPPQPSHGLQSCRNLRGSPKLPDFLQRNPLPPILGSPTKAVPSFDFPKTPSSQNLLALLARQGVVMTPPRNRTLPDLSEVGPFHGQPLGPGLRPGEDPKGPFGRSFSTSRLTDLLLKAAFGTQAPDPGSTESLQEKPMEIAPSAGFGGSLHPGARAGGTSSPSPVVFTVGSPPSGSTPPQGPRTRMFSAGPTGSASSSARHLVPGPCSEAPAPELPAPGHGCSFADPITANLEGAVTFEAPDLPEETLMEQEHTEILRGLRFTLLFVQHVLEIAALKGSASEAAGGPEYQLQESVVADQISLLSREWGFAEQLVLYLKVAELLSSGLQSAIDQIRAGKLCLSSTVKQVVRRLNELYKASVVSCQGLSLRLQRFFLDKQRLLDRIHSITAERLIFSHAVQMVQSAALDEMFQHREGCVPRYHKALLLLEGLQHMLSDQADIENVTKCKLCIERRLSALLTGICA
Assay: NanoBRET cellular target engagement
Type: cell-based

- IC50: 785 ± 26 nM
Structure (SMILES): CNC(=O)c1ccccc1Oc1nc(Nc2cc(OC)c(OC)c(OC)c2)ncc1Br [SBI-0206965, reference compound]
